Antibody variant affinities, Ab-14 heavy chain, assay 1

The measurements come from Engelhart et al. 2022 (doi:10.1038/s41597-022-01779-4) through the FLAb antibody collection.

The target is the same throughout: PDVDLGDISGINAS, from the HR2 region of SARS-CoV-2 spike.

Parent: Ab-14, a human scFv built as VH, a 15-residue (Gly4Ser)3 linker, VL. Only the CDRs of the heavy chain vary.
VH: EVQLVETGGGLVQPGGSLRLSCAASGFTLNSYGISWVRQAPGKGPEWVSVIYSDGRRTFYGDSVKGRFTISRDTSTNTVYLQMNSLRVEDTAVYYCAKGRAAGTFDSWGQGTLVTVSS
VL: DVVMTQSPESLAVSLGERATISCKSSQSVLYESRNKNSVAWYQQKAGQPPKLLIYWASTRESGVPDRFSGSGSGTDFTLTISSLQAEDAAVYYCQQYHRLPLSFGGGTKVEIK

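The starting antibody came from a phage panning campaign against this peptide. Variants in AAYL49 differ from the parent at up to three CDR positions; double and triple changes were sampled at random. In AlphaSeq, yeast of one mating type display the scFv and yeast of the other type display the target. Binding brings cells together so that they mate, and sequencing counts the barcode pairs among the diploids. The ratio of observed to expected reads was calibrated, replicate by replicate, on BCL2-family standards whose Kd was known from biolayer interferometry. The assay was run in three technical replicates.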

Each variant is given by its three heavy chain CDRs, as the data file delimits them; those of the parent are GFTLNSYGIS, VIYSDGRRTFYGDSVK, GRAAGTFDS. This list gathers variants with a substitution at V50 (VH, numbered from residue 1). Each Kd is an estimate from the mating assay, the geometric mean of the replicates in which the pair was seen; lower is stronger. Where no diploid with the target was found in any replicate, the entry reads "no signal": below detection, most likely a poor binder, though not proof of it. The list is sorted by this average, lowest first, undetected variants last.

With GFTLNSYGIS | IIYHDGRRTFYLDSVK | GRAAGTFDS the result was 46 nM (3 of 3 replicates; controls 0 of 9). The variant GFTYNSYGIS | HIYSDGRRTGYGDSVK | GRAAGTFDS gave 1.1 µM (1 of 3 replicates; controls 3 of 9). The variant GFTLNSYGIS | IIYSDGRRTFTGDSIK | GRAAGTFDS gave 1.2 µM (1 of 3 replicates; controls 1 of 9). For GFTLNSYGIS | PIYSDWRRTFYGDSVK | GRAAYTFDS, the assay gave 5.4 µM (1 of 3 replicates; controls 2 of 9). With GFLLNSYGIS | YIYSFGRRTFYGDSVK | GRAAGTFDS the result was 6.7 µM (2 of 3 replicates; controls 1 of 9). With GFTLNSYGIS | QIYKDGRRTFYGDSVK | GRAAGTFDS the result was 9.0 µM (3 of 3 replicates; controls 3 of 9).

The variant GFTLTSYGIS | AIYSDGRRTFYGDSVK | GRAAGTFDS gave 9.7 µM (1 of 3 replicates; controls 2 of 9). With GFTLCSYGIS | TIYSDGRRTFYGDSVK | GRNAGTFDS the result was 10 µM (1 of 3 replicates; controls 3 of 9). The variant GFTLNSYGIS | CIYSDGRRTFYGDFVK | GRAAGTFDS gave 12 µM (1 of 3 replicates; controls 0 of 9). With GFTLNTYGIS | RIYSDGRRTFYGDSVK | GRAAHTFDS the result was 13 µM (2 of 3 replicates; controls 5 of 9). With GFTGNSYGIS | SIYSDGRRTFYGDQVK | GRAAGTFDS the result was 14 µM (1 of 3 replicates; controls 1 of 9). With GFTLNSYGIY | QIYSDGRRTFYGDSVK | YRAAGTFDS the result was 15 µM (1 of 3 replicates; controls 3 of 9).

With KFTLNSYGIS | HIYSMGRRTFYGDSVK | GRAAGTFDS the result was 24 µM (1 of 3 replicates; controls 5 of 9). The variant GFTLNSYGIS | TIYWDGRRTFYGDSVK | GRAAGPFDS gave 38 µM (1 of 3 replicates; controls 1 of 9). For GFTLNSYGIS | AIYSDGRRTFYSDSVK | GRAAGTFFS, the assay gave 68 µM (1 of 3 replicates; controls 1 of 9). The variant GFTLNSYGIP | EIYSDGRRTFYGDRVK | GRAAGTFDS gave 90 µM (2 of 3 replicates; controls 2 of 9). With GFTLNSYGIS | AIYTDGRRTFYGDHVK | GRAAGTFDS the result was 100 µM (3 of 3 replicates; controls 7 of 9). The variant GFTLNSYGIS | PIYSYGRRTFYGDNVK | GRAAGTFDS gave 170 µM (2 of 3 replicates; controls 3 of 9).

With GFTLNSYGSS | HIYSDGRRTFYGDSVK | GRAAGTKDS the result was 170 µM (2 of 3 replicates; controls 3 of 9). The variant GSTLNSYGIS | SIYSDGRRTFYGDSVF | GRAAGTFDS showed no signal (0 of 3 replicates; controls 4 of 9). The variant GFTLNSYGIS | FIYSDGRRTFYGDSGK | GRAAGTFDS gave no signal (0 of 3 replicates; controls 0 of 9). The variant GFTLNSYGIS | PIYSDGRRTFYGDSVK | GRAIGTFDA showed no signal (0 of 3 replicates; controls 4 of 9). The variant GFTLNSYGIS | PIYSDGRRTMYGDSVK | GRAAGTFDN gave no signal (0 of 3 replicates; controls 0 of 9). For GFELNSYGIS | AIYSDGRRTFYGDSVK | GRAAGTFDM, the assay gave no signal (0 of 3 replicates; controls 0 of 9).

The variant GFTLNSCGIS | NIYSDGRRTFYGDSVK | GRAAGTFQS showed no signal (0 of 3 replicates; controls 4 of 9). The variant GFTLNSYGIS | SIYSDGRRTFYGDSVK | FRAAGDFDS gave no signal (0 of 3 replicates; controls 1 of 9). For GLTLNSYGIS | TIYSDGRRTFGGDSVK | GRAAGTFDS, the assay gave no signal (0 of 3 replicates; controls 1 of 9). For FFTLNSYGIS | MPYSDGRRTFYGDSVK | GRAAGTFDS, the assay gave no signal (0 of 3 replicates; controls 1 of 9). With GFTLNSYGIS | AHYSDGRRTFYGDSVK | GDAAGTFDS the result was no signal (0 of 3 replicates; controls 0 of 9). For GFTLNSYGIS | QIYSDGRRSFYGDSVK | RRAAGTFDS, the assay gave no signal (0 of 3 replicates; controls 0 of 9).

With GFTLNSYIIS | HIYSDGRRTFYGDSRK | GRAAGTFDS the result was no signal (0 of 3 replicates; controls 0 of 9). For GFTLNSYGIS | YIYSDGGRTFYGDSVK | GRWAGTFDS, the assay gave no signal (0 of 3 replicates; controls 0 of 9). The variant GFTLNIYGIS | GIYSDGRRTFYGDSVK | GAAAGTFDS showed no signal (0 of 3 replicates; controls 0 of 9). The variant GFTLNSYGIS | SIYSDGRRTFYGDSVK | GRAAGTGDS gave no signal (0 of 3 replicates; controls 2 of 9).

Top 3 of the variants detected in all replicates, tightest first:

CDR-H1	CDR-H2	CDR-H3	Kd (apparent)	seen in	control signals
GFTLNSYGIS	IIYHDGRRTFYLDSVK	GRAAGTFDS	46 nM	3 of 3	0 of 9
GFTLNSYGIS	QIYKDGRRTFYGDSVK	GRAAGTFDS	9.0 µM	3 of 3	3 of 9
GFTLNSYGIS	AIYTDGRRTFYGDHVK	GRAAGTFDS	100 µM	3 of 3	7 of 9

Three control strains display no target. For library AAYL49, 15% of the pairings with them gave a signal, with a median of 11 µM and one signal in twenty below 680 nM, so weak values seen in few replicates may be background. Also given: how often the same scFv was detected with the empty control strains.